# The entries are a selection whose mix differs from that of the whole data set. The source made the active and inactive calls. No stated cut-off is given here; in the data, active means inhibition above about 75%; inconclusive means no clear call, values can overlap the other calls; inactive means below that; tested in HMLE shEcad cells.
# Assay: growth suppression of cancer stem-like cells – cell-based, luminescence, primary screen (AID 2717)
# Conditions: cancer stem cell-like cells viability, at 7.5 µM, active compounds read high
row,SMILES,inhibition
1,N#CC1(Nc2ccccc2)CCN(CCc2ccccc2)CC1,inactive: -1.51%
2,CCN1CCC(Nc2ccc(Cl)cc2)CC1,inactive: -10.8%
3,O=C(NCC1(N2CCCCC2)CCCCC1)c1cccc([N+](=O)[O-])c1,inactive: 6.28%
4,O=C(NCC1(N2CCCCC2)CCCCC1)c1ccc(OC(F)F)cc1,inactive: 18.5%
5,COc1cc(C(=O)NCC2(N3CCCCC3)CCCCC2)ccc1OC(F)F,inactive: -6.38%
6,O=C(NCC1(N2CCOCC2)CCCCC1)c1cc(=O)[nH]c2ccccc12,inactive: 6.48%
7,CN1CCN(CCOC(=O)C(O)(c2ccccc2)c2ccccc2)CC1,inactive: -3.19%
8,O=C(NCC1(N2CCCCC2)CCCCC1)c1cccc(C(F)(F)F)c1,inactive: -8.41%
9,O=C(NCC1(N2CCOCC2)CCCCC1)c1cc(F)c(F)cc1Cl,inactive: -11.8%
10,COc1cc(OC)c(C(=O)NCC2(N(C)C)CCCCC2)cc1OC,inactive: -6.63%
11,CC(C)c1ccc(NC2CCN(C(=O)OC(C)(C)C)CC2)cc1,inactive: 15.5%
12,CN(C)c1cccc(C(=O)NCC2(N3CCCCC3)CCCCC2)c1,inactive: 2.36%
13,COc1ccc(CN(CCCl)CCCl)cc1Cl,inactive: -9.76%
14,CCCOc1ccc(C(=O)NCC2(N(C)C)CCCCC2)cc1OC,inactive: -2.41%
15,CN1CCC(Nc2cccc(F)c2)CC1,inactive: -13.2%
16,O=C(NCC1(N2CCCCC2)CCCCC1)c1cncc(Br)c1,inactive: -3.98%
17,CSc1ccccc1C(=O)NCC1(N2CCCCC2)CCCCC1,inactive: 6.37%
18,COc1ccc(C(=O)NCC2(N3CCCCC3)CCCCC2)c(OC)c1OC,inactive: -5.53%
19,CC(C)(C)OC(=O)N1CCC(N(C(=O)c2ccccc2)c2ccc(F)cc2)CC1,inactive: -14.3%
20,COc1ccc(C(=O)NCC2(N3CCCCC3)CCCCC2)cc1,inactive: 5.08%

row,SMILES,inhibition
1,O=C(NCC1(N2CCCCC2)CCCCC1)c1cccs1,inactive: -6.7%
2,O=C(NCC1(N2CCCCC2)CCCCC1)c1ccc(=O)[nH]c1,inactive: -0.956%
3,N#CC1(Nc2ccccc2)CCN(Cc2ccccc2)CC1,inactive: -4.41%
4,O=C(OC1CN2CCC1CC2)C1c2ccccc2Oc2ccccc21 (stereo not given),inactive: -9.37%
5,CCOC(=O)N1CCC(Nc2ccc(OC)cc2)CC1,inactive: -9.55%
6,Cc1cc(C)cc(N(C(=O)c2ccccc2)C2CCN(C(=O)OC(C)(C)C)CC2)c1,inactive: 6.16%
7,O=C(NCC1(N2CCCCC2)CCCCC1)c1ccc(Cl)nc1,inactive: 1.48%
8,O=C(NCC1(N2CCOCC2)CCCCC1)c1cc2ccccc2o1,inactive: -1.37%
9,COc1ccc(NC2CCN(CCc3ccccc3)CC2)c(OC)c1,inactive: -0.747%
10,CCOC(=O)N1CCC(Nc2ccc(F)cc2)CC1,inactive: -12%
11,O=C(NCC1(N2CCCCC2)CCCCC1)c1ccc(F)cc1,inactive: -8.97%
12,CCOc1ccc(C)cc1CN(CCCl)CCCl,inactive: -4.62%
13,Cc1ccc(OCC(C)C)c(CN(CCCl)CCCl)c1,inactive: -14%
14,CCOC(=O)N1CCC(Nc2cccc(C)c2)CC1,inactive: 2.07%
15,COc1cc(C(=O)NCC2(N(C)C)CCCCC2)ccc1OC(F)F,inactive: -10.5%
16,Fc1ccccc1NC1CCN(Cc2ccccc2)CC1,inactive: -6.38%
17,Cc1ccc(C(=O)NCC2(N3CCCCC3)CCCCC2)o1,inactive: -4.16%
18,COc1cc(OC)cc(C(=O)NCC2(N3CCCCC3)CCCCC2)c1,inactive: 0.246%
19,CN(C)c1ccc(C(=O)NCC2(N3CCCCC3)CCCCC2)cc1,inactive: -2.63%
20,CCN1CCC(Nc2cccc(F)c2)CC1,inactive: -8.19%

row,SMILES,inhibition
1,O=C(O)C1(Nc2ccccc2)CCN(Cc2ccccc2)CC1,inactive: -5.8%
2,CC(C)(C)OC(=O)N1CCC(Nc2ccccc2)CC1,inactive: -10.7%
3,CCCOc1ccc(C(=O)NCC2(N(C)C)CCCCC2)cc1,inactive: -13.8%
4,CN1CCC(Nc2ccc(F)c(Cl)c2)CC1,inactive: 1.8%
5,CCOc1ncccc1C(=O)NCC1(N2CCOCC2)CCCCC1,inactive: -7.04%
6,CN1CCC(Nc2ccc(Cl)cc2)CC1,inactive: -7.25%
7,CCCOc1ccc(C)cc1CN(CCCl)CCCl,inactive: -13.3%
8,COc1cc(OC)cc(C(=O)NCC2(N3CCOCC3)CCCCC2)c1,inactive: -9.5%
9,COc1cccc(C(=O)N(c2cc(C)cc(C)c2)C2CCN(C(=O)OC(C)(C)C)CC2)c1,inactive: 5.52%
10,CCC(CO)(C(=O)OC1CN2CCC1CC2)c1ccccc1 (stereo not given),inactive: 4.13%
11,COc1ccc(C(=O)NCC2(N3CCOCC3)CCCCC2)cc1OC,inactive: -2.06%
12,COc1cc(C(=O)NCC2(N3CCOCC3)CCCCC2)cc(OC)c1C,inactive: -9.13%
13,CCc1cc(C(=O)NCC2(N3CCCCC3)CCCCC2)sc1C,inactive: -1.08%
14,CCOC(=O)N1CCC(Nc2ccc(C)cc2)CC1,inactive: -14.6%
15,N/C(=N\O)c1c(N)no[n+]1[O-],inactive: -3.82%
16,N#Cc1ccc(C(=O)NCC2(N3CCCCC3)CCCCC2)cc1,inactive: -12.5%
17,CC(C)(C)OC(=O)N1CCC(N(C(=O)c2ccccc2)c2ccc(Cl)cc2)CC1,inactive: -7.07%
18,CN(C)C1(CNC(=O)c2cccc(C#N)c2)CCCCC1,inactive: 7.32%
19,CCCN1CCC(Nc2cc(OC)cc(OC)c2)CC1,inactive: -6.21%
20,c1ccc(CN2CCC(Nc3ccccc3)CC2)cc1,inactive: 21.9%

# From PubChem BioAssay AID2717 (Broad Institute, 2010)
